From DBAASP

Assays:
Experiment in all cases: ≥ marks a high value that may be exact or a test limit, other limits are often not marked, values filed in µg/mL are converted to µM
[1] = system: Erwinia amylovora PMV 6076
[2] = system: Pseudomonas syringae pv. syringae EPS 94
[3] = system: Xanthomonas campestris pv. Vesicatoria 2133-2

Structure (SMILES) | MIC [1] | MIC [2] | MIC [3]
CC[C@H](C)[C@H](NC(=O)[C@H](CC(C)C)NC(=O)[C@H](C)NC(=O)[C@@H]1CCCN1C(=O)[C@H](CC(C)C)NC(=O)CNC(=O)[C@@H](NC(=O)[C@@H](NC(=O)[C@H](CC(C)C)NC(=O)[C@H](Cc1ccc(O)cc1)NC(=O)[C@H](CCCCN)NC(=O)[C@H](CC(C)C)NC(=O)[C@@H](NC(=O)[C@H](CCCCN)NC(=O)[C@H](CCCCN)NC(=O)[C@H](Cc1ccccc1)NC(=O)[C@H](CC(C)C)NC(=O)[C@H](CCCCN)NC(=O)[C@@H](N)CCCCN)[C@@H](C)CC)[C@@H](C)O)[C@@H](C)O)C(=O)N[C@@H](CO)C(=O)N[C@@H](Cc1c[nH]c2ccccc12)C(=O)N[C@@H](CCCCN)C(=O)N[C@@H](CC(=O)O)C(=O)N[C@@H](CCC(=O)O)C(=O)N[C@@H](CC(C)C)C(=O)O [KKLFKKILKYLTTGLPALISWKDEL] | 3.54 µM (≈ 10.4 µg/mL) | 3.54 µM (≈ 10.4 µg/mL) | 1.77 µM (≈ 5.21 µg/mL)
CC[C@H](C)[C@H](NC(=O)CNC(=O)[C@H](CC(C)C)NC(=O)[C@H](Cc1ccc(O)cc1)NC(=O)[C@H](CCCCN)NC(=O)[C@H](CC(C)C)NC(=O)[C@@H](NC(=O)[C@H](CCCCN)NC(=O)[C@H](CCCCN)NC(=O)[C@H](Cc1ccccc1)NC(=O)[C@H](CC(C)C)NC(=O)[C@H](CCCCN)NC(=O)[C@@H](N)CCCCN)[C@@H](C)CC)C(=O)NCC(=O)N[C@@H](CCCCN)C(=O)N[C@@H](Cc1ccccc1)C(=O)N[C@@H](CC(C)C)C(=O)N[C@@H](Cc1cnc[nH]1)C(=O)N[C@@H](CO)C(=O)N[C@@H](C)C(=O)N[C@@H](CCCCN)C(=O)N[C@@H](CCCCN)C(=O)N[C@@H](CC(=O)O)C(=O)N[C@@H](CCC(=O)O)C(=O)N[C@@H](CC(C)C)C(=O)O [KKLFKKILKYLGIGKFLHSAKKDEL] | 6.12 µM (≈ 18 µg/mL) | 3.54 µM (≈ 10.4 µg/mL) | 3.54 µM (≈ 10.4 µg/mL)

≈ marks a conversion by molar mass, not a printed value.
